{"sequences": {"note": "The chains behind the UniProt entries cited, without tags or fusion partners. Where a name states a change or a piece, a line headed by the entry shows the natural chain unless it says otherwise.", "UniProt P04483": "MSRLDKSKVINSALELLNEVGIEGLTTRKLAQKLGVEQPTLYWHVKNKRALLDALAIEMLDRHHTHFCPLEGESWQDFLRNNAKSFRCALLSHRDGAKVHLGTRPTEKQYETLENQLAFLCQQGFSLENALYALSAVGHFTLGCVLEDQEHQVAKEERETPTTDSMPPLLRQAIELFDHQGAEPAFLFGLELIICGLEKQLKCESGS"}, "source": "patent US20050070006A1", "about": "(priority 2001, published 2005)", "key": {"[1]": {"tested_on": "strain 3S (base substitution)", "test": "Long-term mutation test (selection phase 16 hours), luminometric β-galactosidase reporter", "details": "selection 16 hours"}, "[2]": {"tested_on": "strain 3Smuc (base substitution)", "test": "Long-term test and detection via colour change (β-lactamase activity, nitrocefin)"}, "[3]": {"tested_on": "strain 3S (base substitution)", "test": "Long-term test and detection via colour change (Bromocresol Red)"}, "[4]": {"tested_on": "strain 3S (base substitution)", "details": "short-term test, selection 6 hours"}, "[5]": {"target": "Tet repressor (Escherichia coli, UniProt P04483)", "details": "relative to tetracyclin; Degenkolb et al. 1991; cited from earlier work"}}, "note": "Read-outs that look alike come from different tables or passages of the source. Marks after values point to notes of the source that are not given here."}
{"substance": "N-Methyl-N-nitro-N-nitrosoguanidine", "values": [{"measurement": "Mutation induction (factor)", "setting": "[1]; 0.125 μg/ml", "value": 2.9, "unit": "factor"}, {"measurement": "Relative luminescence units (rlu)", "setting": "[1]; 0.125 μg/ml", "value": 14369, "unit": "rlu"}, {"measurement": "Mutation induction (factor)", "setting": "[1]; 0.25 μg/ml", "value": 21.3, "unit": "factor"}, {"measurement": "Relative luminescence units (rlu)", "setting": "[1]; 0.25 μg/ml", "value": 104568, "unit": "rlu"}, {"measurement": "Mutation induction (factor)", "setting": "[1]; 0.5 μg/ml", "value": 37, "unit": "factor"}, {"measurement": "Relative luminescence units (rlu)", "setting": "[1]; 0.5 μg/ml", "value": 181601, "unit": "rlu"}, {"measurement": "Mutation induction (factor)", "setting": "[1]; 1 μg/ml", "value": 80.5, "unit": "factor"}, {"measurement": "Relative luminescence units (rlu)", "setting": "[1]; 1 μg/ml", "value": 395235, "unit": "rlu"}, {"measurement": "Mutation induction (factor)", "setting": "[1]; 2 μg/ml", "value": 105, "unit": "factor"}, {"measurement": "Relative luminescence units (rlu)", "setting": "[1]; 2 μg/ml", "value": 516442, "unit": "rlu"}, {"measurement": "% of positive wells", "setting": "[2]; 0.03 μg/ml", "value": 1, "unit": "%"}, {"measurement": "Mutation induction (factor)", "setting": "[2]; 0.03 μg/ml", "value": 1, "unit": "factor"}, {"measurement": "% of positive wells", "setting": "[2]; 0.06 μg/ml", "value": 1, "unit": "%"}, {"measurement": "Mutation induction (factor)", "setting": "[2]; 0.06 μg/ml", "value": 1, "unit": "factor"}, {"measurement": "% of positive wells", "setting": "[2]; 0.13 μg/ml", "value": 22, "unit": "%"}, {"measurement": "Mutation induction (factor)", "setting": "[2]; 0.13 μg/ml", "value": 22, "unit": "factor"}, {"measurement": "% of positive wells", "setting": "[2]; 0.25 μg/ml", "value": 48, "unit": "%"}, {"measurement": "Mutation induction (factor)", "setting": "[2]; 0.25 μg/ml", "value": 48, "unit": "factor"}, {"measurement": "% of positive wells", "setting": "[2]; 0.5 μg/ml", "value": 48, "unit": "%"}, {"measurement": "Mutation induction (factor)", "setting": "[2]; 0.5 μg/ml", "value": 48, "unit": "factor"}, {"measurement": "% of positive wells", "setting": "[2]; 1 μg/ml", "value": 48, "unit": "%"}, {"measurement": "Mutation induction (factor)", "setting": "[2]; 1 μg/ml", "value": 48, "unit": "factor"}, {"measurement": "% of positive wells", "setting": "[2]; 2 μg/ml", "value": 47, "unit": "%"}, {"measurement": "Mutation induction (factor)", "setting": "[2]; 2 μg/ml", "value": 47, "unit": "factor"}, {"measurement": "% of positive wells", "setting": "[3]; 0.12 μg/ml", "value": 12.5, "unit": "%"}, {"measurement": "Mutation induction (factor)", "setting": "[3]; 0.12 μg/ml", "value": 4.5, "unit": "factor"}, {"measurement": "% of positive wells", "setting": "[3]; 0.25 μg/ml", "value": 69, "unit": "%"}, {"measurement": "Mutation induction (factor)", "setting": "[3]; 0.25 μg/ml", "value": 24.6, "unit": "factor"}, {"measurement": "% of positive wells", "setting": "[3]; 0.5 μg/ml", "value": 75, "unit": "%"}, {"measurement": "Mutation induction (factor)", "setting": "[3]; 0.5 μg/ml", "value": 26.8, "unit": "factor"}, {"measurement": "% of positive wells", "setting": "[3]; 1.2 μg/ml", "value": 93, "unit": "%"}, {"measurement": "Mutation induction (factor)", "setting": "[3]; 1.2 μg/ml", "value": 33.2, "unit": "factor"}, {"measurement": "% of positive wells", "setting": "[3]; 2.4 μg/ml", "value": 100, "unit": "%"}, {"measurement": "Mutation induction (factor)", "setting": "[3]; 2.4 μg/ml", "value": 35.7, "unit": "factor"}, {"measurement": "% of positive wells", "setting": "[3]; 4.8 μg/ml", "value": 99, "unit": "%"}, {"measurement": "Mutation induction (factor)", "setting": "[3]; 4.8 μg/ml", "value": 35.4, "unit": "factor"}, {"measurement": "Mutation induction (factor)", "setting": "[3]; 9.6 μg/ml", "value": 5.5, "unit": "factor"}, {"measurement": "% of positive wells", "setting": "[3]; 9.6 μg/ml, drop due to cytotoxicity", "value": "15.3* %"}, {"measurement": "Mutation induction (factor)", "setting": "[3]; 19.2 μg/ml", "value": 0.75, "unit": "factor"}, {"measurement": "% of positive wells", "setting": "[3]; 19.2 μg/ml, drop due to cytotoxicity", "value": "2.1* %"}, {"measurement": "Mutation induction (factor)", "setting": "[4]; 0.625 μg/ml", "value": 1.1, "unit": "factor"}, {"measurement": "Relative luminescence units (rlu)", "setting": "[4]; 0.625 μg/ml", "value": 5766, "unit": "rlu"}, {"measurement": "Mutation induction (factor)", "setting": "[4]; 1.25 μg/ml", "value": 1.1, "unit": "factor"}, {"measurement": "Relative luminescence units (rlu)", "setting": "[4]; 1.25 μg/ml", "value": 5869, "unit": "rlu"}, {"measurement": "Mutation induction (factor)", "setting": "[4]; 2.5 μg/ml", "value": 2.3, "unit": "factor"}, {"measurement": "Relative luminescence units (rlu)", "setting": "[4]; 2.5 μg/ml", "value": 12564, "unit": "rlu"}, {"measurement": "Mutation induction (factor)", "setting": "[4]; 5 μg/ml", "value": 10, "unit": "factor"}, {"measurement": "Relative luminescence units (rlu)", "setting": "[4]; 5 μg/ml", "value": 57071, "unit": "rlu"}, {"measurement": "Mutation induction (factor)", "setting": "[4]; 10 μg/ml", "value": 29, "unit": "factor"}, {"measurement": "Relative luminescence units (rlu)", "setting": "[4]; 10 μg/ml", "value": 159775, "unit": "rlu"}]}
{"substance": "anhydrotetracyclin", "values": [{"measurement": "binds to the Tet repressor more strongly (compared with tetracyclin)", "setting": "[5]", "value": "approximately 35 times"}]}
